Binding of CDR-mutated scFvs to a peptide of the spike HR2 region

From the AlphaSeq antibody data of Engelhart et al. 2022 (doi:10.1038/s41597-022-01779-4), copy in the FLAb collection.

Target: peptide PDVDLGDISGINAS, taken from heptad repeat 2 (HR2) of SARS-CoV-2 spike.

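The library (AAYL50) carries one to three amino acid substitutions per variant, with no insertions or deletions. Affinity was read by AlphaSeq, a pooled yeast mating assay with surface-displayed partners. The frequency of each diploid, read from paired DNA barcodes, reflects how well the two displayed proteins bind. Each replicate has its own calibration line, from reference interactions of the BCL2 family. There are three technical replicates.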

Parent: Ab-14, a human scFv built as VH, a 15-residue (Gly4Ser)3 linker, VL. Only the CDRs of the light chain vary.
VH: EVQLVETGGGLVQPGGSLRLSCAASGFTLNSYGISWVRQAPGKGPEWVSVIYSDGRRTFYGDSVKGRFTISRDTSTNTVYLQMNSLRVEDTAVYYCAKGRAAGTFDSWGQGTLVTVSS
VL: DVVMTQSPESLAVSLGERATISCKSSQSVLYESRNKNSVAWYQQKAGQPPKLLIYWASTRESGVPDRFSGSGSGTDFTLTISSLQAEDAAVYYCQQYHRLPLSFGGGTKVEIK

Each variant is given by its three light chain CDRs, as the data file delimits them; those of the parent are KSSQSVLYESRNKNSVA, WASTRES, QQYHRLPLS. The read-out is the apparent dissociation constant on a log10 scale (nM): the lower, the stronger. Replicates are averaged; those with no signal do not enter the mean. A pair that was not seen in that replicate is written "ND"; this usually means weak binding, but a binder can also be missed. As a blank, each scFv also met three strains without target: over library AAYL50, 18% of these pairings were detected, typically at 4.19 and seldom below 2.99. Also given: how often the same scFv was detected with the empty control strains, with their mean in brackets.

| # | CDR-L1 | CDR-L2 | CDR-L3 | log10 Kd (nM) by replicate | log10 Kd (nM), mean | empty controls |
|---|---|---|---|---|---|---|
| 1 | KSSQSVYYESRNKNSVA | WASTRES | KQYARLPLS | ND / ND / ND | ND | 2/9 (3.83) |
| 2 | KSSQSVLYESRNKNSIK | WASMRES | QQYHRLPLS | ND / ND / ND | ND | 2/9 (3.20) |
| 3 | KSSQSVRYESRNKNSVD | WASTRES | CQYHRLPLS | 4.03 / 4.41 / ND | 4.22 | 2/9 (4.27) |
| 4 | KSSQSVLYESRNKNSVA | WASTRES | QQYKRLPLS | ND / ND / ND | ND | 0/9 |
| 5 | KSSQSVLYESRNKNSVA | CKSTRES | QQYHRLPLS | 2.69 / 2.79 / 3.46 | 2.98 | 2/9 (4.43) |
| 6 | TSSTSVLYESRNKNSVS | WASTRES | QQYHRLPLS | ND / ND / ND | ND | 1/9 (3.30) |
| 7 | KSSQSVLYQSRNDNSVA | WASHRES | QQYHRLPLS | 0.45 / 0.68 / 0.62 | 0.58 | 0/9 |
| 8 | MSSQSVLYEMRNKNSVA | WASTRES | QQYHRLPLQ | 1.40 / 1.92 / 2.19 | 1.84 | 1/9 (3.05) |
| 9 | KSSQSVLYELNNKNSVA | RASTRES | QQYHRLPLS | 0.67 / 0.75 / 0.85 | 0.76 | 1/9 (3.57) |
| 10 | YSSQSVMYESRNKNSVA | WWSTRES | QQYHRLPLS | ND / 4.32 / 5.52 | 4.92 | 3/9 (3.74) |
| 11 | KWSQSKLYQSRNKNSVA | WASTRES | QQYHRLPLS | 5.21 / ND / ND | 5.21 | 2/9 (4.97) |
| 12 | KSSQSVLYWSRNKNSVA | WASTRES | FQYHRLMLS | 2.66 / 2.46 / 2.19 | 2.44 | 2/9 (4.04) |
| 13 | KSSQSVLYEQRNKNSVA | WASTRLN | QQYHRLPLS | 1.15 / 1.32 / 1.34 | 1.27 | 4/9 (4.60) |
| 14 | KSSQSVLDESRNKNSVA | WASTRES | ATYHRLPLS | 0.27 / 0.62 / 0.38 | 0.42 | 1/9 (4.53) |
| 15 | KSSQSVLYEVRNKNSVA | WASTRTS | QQYHRLPLS | 2.00 / ND / 2.41 | 2.21 | 0/9 |
| 16 | KSSQSVLYESANKNSVA | WASTRES | QQYPRLELS | 0.67 / 0.72 / 0.78 | 0.72 | 3/9 (4.11) |
| 17 | DSSQSQLYESRNKNSVA | WASTRES | QQYHRRPLS | 1.54 / 1.68 / 1.66 | 1.63 | 3/9 (4.49) |
| 18 | KSSQSVLYESINKNSVA | WASTCES | QNYHRLPLS | ND / ND / 4.60 | 4.60 | 1/9 (5.38) |
| 19 | KSSQSVLYESRNKNSPT | WASTREK | QQYHRLPLS | ND / 5.18 / ND | 5.18 | 3/9 (3.91) |
| 20 | KSSQSVQYESRNKNSVA | WASTRAS | QQYHRLPFS | 0.55 / 1.07 / 1.09 | 0.90 | 0/9 |
| 21 | KGSQSVLYEYRNKNSNA | WASTRES | QQYHRLPLS | ND / ND / ND | ND | 0/9 |
| 22 | KSSQSVLYESRNKNSVE | WFSTRSS | QQYHRLPLS | ND / ND / ND | ND | 0/9 |
| 23 | KPSQSMLYESRNKNSVA | WASTRES | QQYHRLPLS | 1.96 / 1.91 / 1.82 | 1.90 | 2/9 (3.22) |
| 24 | KSSQSVLYECRNKNSVA | WAITRES | QQYHYLPLS | ND / ND / ND | ND | 0/9 |
| 25 | RSSQSVLIESRNKNSEA | WASTRES | QQYHRLPLS | ND / ND / ND | ND | 0/9 |
| 26 | KSSQSVLYESRKKNSVN | WASTRES | QQYHRLPHS | 5.01 / ND / 4.77 | 4.89 | 3/9 (4.45) |
| 27 | KSSQSFLYESRNKNSCA | WASTRES | QQYHRLPLS | 4.00 / ND / ND | 4.00 | 0/9 |
| 28 | KSSHSVLYESRNENSVA | WASTREV | QQYHRLPLS | 0.12 / 0.35 / 0.28 | 0.25 | 1/9 (5.02) |
| 29 | KSSQSVLYESRNKNAVA | WASTRET | QQYHRLPMS | 1.88 / 2.30 / 2.31 | 2.17 | 0/9 |
| 30 | KSYQSWLYESRNKNMVA | WASTRES | QQYHRLPLS | 4.29 / ND / ND | 4.29 | 1/9 (3.32) |
| 31 | KCSQSVLYESRNKNSNA | WASTRES | QQYHGLPLS | ND / ND / ND | ND | 0/9 |
| 32 | KNSQSVLYESRNKNSVG | WASTWES | QQYHRLPLS | ND / 4.68 / ND | 4.68 | 1/9 (3.68) |
| 33 | KSSQSVLYFRRNKNSVA | WASTRES | QQYHRLPLS | 3.65 / 3.64 / 5.75 | 4.35 | 0/9 |
| 34 | KSNLSVLYESRNKNSVA | WASTRES | QQYHRLPLS | 2.05 / 1.91 / 2.18 | 2.05 | 6/9 (4.79) |
| 35 | KSSQSVLNESRNKNSVA | WASTRES | QQYHRLPLL | 2.27 / 1.89 / 2.00 | 2.05 | 0/9 |
| 36 | KSSQSVAYESRNKNSFA | WASTRES | QQYHRLFLS | 5.20 / 2.93 / 3.84 | 3.99 | 3/9 (4.03) |
| 37 | KSSQSVLSESRNKNSVY | WASTRES | HQYHRLPLS | ND / ND / ND | ND | 1/9 (3.10) |
| 38 | KSSQSVLYELRNKNSVA | WASTRES | QQHHRLPLS | 4.11 / ND / 2.98 | 3.54 | 0/9 |

Repeated from above, the 3 best binders with a signal in all replicates:

CDR-L1,CDR-L2,CDR-L3,log10 Kd (nM) by replicate,"log10 Kd (nM), mean",empty controls
KSSHSVLYESRNENSVA,WASTREV,QQYHRLPLS,0.12 / 0.35 / 0.28,0.25,1/9 (5.02)
KSSQSVLDESRNKNSVA,WASTRES,ATYHRLPLS,0.27 / 0.62 / 0.38,0.42,1/9 (4.53)
KSSQSVLYQSRNDNSVA,WASHRES,QQYHRLPLS,0.45 / 0.68 / 0.62,0.58,0/9